Data: PubChem BioAssay (NCI)
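Each compound was tested at five concentrations against cells in 96-well plates for 48 hours. GI50 is the concentration that inhibits growth by half. Definition used: TGI = concentration required for complete inhibition of growth.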

Columns and labels:
Assay in all cases: NCI-60 cell line screen, 48 h
786-0 renal = tested on: 786-0 renal
A498 renal = tested on: A498 renal
A549 NSCLC = tested on: A549 NSCLC
ACHN renal = tested on: ACHN renal
BT-549 breast = tested on: BT-549 breast
CAKI-1 renal = tested on: CAKI-1 renal
CCRF-CEM leukemia = tested on: CCRF-CEM leukemia
COLO 205 colon = tested on: COLO 205 colon
DU-145 prostate = tested on: DU-145 prostate
EKVX NSCLC = tested on: EKVX NSCLC
HCT-116 colon = tested on: HCT-116 colon
HCT-15 colon = tested on: HCT-15 colon
HL-60(TB) leukemia = tested on: HL-60(TB) leukemia
HOP-62 NSCLC = tested on: HOP-62 NSCLC
HOP-92 NSCLC = tested on: HOP-92 NSCLC
HS 578T breast = tested on: HS 578T breast
HT29 colon = tested on: HT29 colon
K-562 leukemia = tested on: K-562 leukemia
KM12 colon = tested on: KM12 colon
M14 melanoma = tested on: M14 melanoma
MCF7 breast = tested on: MCF7 breast
MDA-MB-435 = tested on: MDA-MB-435
MDA-N = tested on: MDA-N
MOLT-4 leukemia = tested on: MOLT-4 leukemia
NCI-H226 lung = tested on: NCI-H226 lung
NCI-H23 lung = tested on: NCI-H23 lung
NCI-H322M lung = tested on: NCI-H322M lung
NCI-H460 lung = tested on: NCI-H460 lung
NCI-H522 lung = tested on: NCI-H522 lung
NCI/ADR-RES ovarian = tested on: NCI/ADR-RES ovarian
OVCAR-3 ovarian = tested on: OVCAR-3 ovarian
OVCAR-4 ovarian = tested on: OVCAR-4 ovarian
OVCAR-5 ovarian = tested on: OVCAR-5 ovarian
PC-3 prostate = tested on: PC-3 prostate
RPMI-8226 leukemia = tested on: RPMI-8226 leukemia
RXF 393 renal = tested on: RXF 393 renal
SF-268 CNS = tested on: SF-268 CNS
SF-295 CNS = tested on: SF-295 CNS
SF-539 CNS = tested on: SF-539 CNS
SK-MEL-2 melanoma = tested on: SK-MEL-2 melanoma
SK-MEL-28 melanoma = tested on: SK-MEL-28 melanoma
SK-MEL-5 melanoma = tested on: SK-MEL-5 melanoma
SK-OV-3 ovarian = tested on: SK-OV-3 ovarian
SN12C renal = tested on: SN12C renal
SNB-75 CNS = tested on: SNB-75 CNS
SW-620 colon = tested on: SW-620 colon
T-47D breast = tested on: T-47D breast
TK-10 renal = tested on: TK-10 renal
U251 CNS = tested on: U251 CNS
UACC-257 melanoma = tested on: UACC-257 melanoma
UACC-62 melanoma = tested on: UACC-62 melanoma
UO-31 renal = tested on: UO-31 renal

## Cc1cccc2c1OP(=O)(N(CCCl)CCCl)OC2C(Cl)(Cl)Cl (centres undefined)
786-0 renal
  GI50: 14.9 µM
  TGI: 28.2 µM
A498 renal
  GI50: 16.8 µM
  TGI: 30.7 µM
A549 NSCLC
  GI50: 10.5 µM
  TGI: 26.3 µM
ACHN renal
  GI50: 15.6 µM
  TGI: 37.7 µM
BT-549 breast
  GI50: 16.9 µM
  TGI: 30.9 µM
CAKI-1 renal
  GI50: 11.1 µM
  TGI: 23.8 µM
CCRF-CEM leukemia
  GI50: 20.7 µM
  TGI: > 100 µM
COLO 205 colon
  GI50: 14.7 µM
  TGI: 28.3 µM
DU-145 prostate
  GI50: 17.3 µM
  TGI: 35.1 µM
EKVX NSCLC
  GI50: 14.5 µM
  TGI: 30.9 µM
HCT-116 colon
  GI50: 11.3 µM
  TGI: 23.8 µM
HCT-15 colon
  GI50: 13.8 µM
  TGI: 27.7 µM
HL-60(TB) leukemia
  GI50: > 100 µM
  TGI: > 100 µM
HOP-62 NSCLC
  GI50: 15.8 µM
  TGI: 30.5 µM
HOP-92 NSCLC
  GI50: 11.6 µM
  TGI: 25.1 µM
HS 578T breast
  GI50: 20.9 µM
  TGI: 74.7 µM
HT29 colon
  GI50: 13.2 µM
  TGI: 26.2 µM
K-562 leukemia
  GI50: 7.8 µM
  TGI: > 100 µM
KM12 colon
  GI50: 13.1 µM
  TGI: 26 µM
M14 melanoma
  GI50: 14 µM
  TGI: 27.7 µM
MCF7 breast
  GI50: 16.6 µM
  TGI: 30.6 µM
MDA-MB-435
  GI50: 14.2 µM
  TGI: 27.5 µM
MDA-N
  GI50: 16 µM
  TGI: 29.9 µM
MOLT-4 leukemia
  GI50: 5.46 µM
  TGI: > 100 µM
NCI-H226 lung
  GI50: 14.3 µM
  TGI: 32 µM
NCI-H23 lung
  GI50: 15.3 µM
  TGI: 34.1 µM
NCI-H322M lung
  GI50: 18.2 µM
  TGI: 34.2 µM
NCI-H460 lung
  GI50: 13.7 µM
  TGI: 27.7 µM
NCI-H522 lung
  GI50: 12.1 µM
  TGI: 24.8 µM
NCI/ADR-RES ovarian
  GI50: 12.3 µM
  TGI: 26.3 µM
OVCAR-3 ovarian
  GI50: 11.6 µM
  TGI: 24.5 µM
OVCAR-4 ovarian
  GI50: 16.6 µM
  TGI: 50.8 µM
OVCAR-5 ovarian
  GI50: 19 µM
  TGI: 34 µM
PC-3 prostate
  GI50: 4.45 µM
  TGI: 18.7 µM
RPMI-8226 leukemia
  GI50: 4.04 µM
  TGI: > 100 µM
RXF 393 renal
  GI50: 12.1 µM
  TGI: 25.4 µM
SF-268 CNS
  GI50: 19 µM
  TGI: 37.2 µM
SF-295 CNS
  GI50: 10.6 µM
  TGI: 23.6 µM
SF-539 CNS
  GI50: 18 µM
  TGI: 32.4 µM
SK-MEL-2 melanoma
  GI50: 17.5 µM
  TGI: 32.4 µM
SK-MEL-28 melanoma
  GI50: 18.2 µM
  TGI: 32.7 µM
SK-MEL-5 melanoma
  GI50: 11.5 µM
  TGI: 23.9 µM
SK-OV-3 ovarian
  GI50: 17.6 µM
  TGI: 43.2 µM
SN12C renal
  GI50: 16.2 µM
  TGI: 30.6 µM
SNB-75 CNS
  GI50: 13.4 µM
  TGI: 29 µM
SW-620 colon
  GI50: 15.3 µM
  TGI: 28.6 µM
T-47D breast
  GI50: 14.7 µM
  TGI: 31.2 µM
TK-10 renal
  GI50: 19.2 µM
  TGI: 38 µM
U251 CNS
  GI50: 15.8 µM
  TGI: 29.9 µM
UACC-257 melanoma
  GI50: 14.2 µM
  TGI: 28.1 µM
UACC-62 melanoma
  GI50: 8.39 µM
  TGI: 21.2 µM
UO-31 renal
  GI50: 11.1 µM
  TGI: 23.3 µM
